Membrane permeability of cyclic peptides

Data: CycPeptMPDB; original report doi:10.1002/anie.201405364.

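The data file gives no further conditions (lipid, pH, time, direction or concentration), and values from different papers need not be comparable. The list need not hold all peptides of the study. Peptides that the database sets to -10, its floor, are left out.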

RRCK is a low-efflux MDCK cell line. EPSA reports exposed polarity as measured by chromatography; lower is less polar. Values are log10 P with P in cm/s, so -5 is more permeable than -7.

compound,RRCK (log10 cm/s),EPSA (Å2)
CC[C@H](C)[C@@H]1NC(=O)[C@@H]2CCCN2C(=O)[C@H](Cc2ccccc2)NC(=O)[C@H](C)NC(=O)c2csc(n2)[C@H]([C@@H](C)CC)NC(=O)[C@@H]2CCCN2C1=O,-6.15,74
CC[C@H](C)[C@@H]1NC(=O)[C@@H]2CCCN2C(=O)[C@H]([C@@H](C)CC)NC(=O)[C@@H]2CCCN2C(=O)[C@H](Cc2ccccc2)NC(=O)[C@H](C)NC(=O)[C@H](C)NC1=O,-6.22,77